Measured values from patent US10583123B2, “Method for the treatment of ATG4-related disorders” (National Tsing Hua University, priority 2017, dated 2020).

Sequences of proteins named here, by UniProt entry; tags and fusion partners are left off. Residues count along the entry.
UniProt P29466, 317-404: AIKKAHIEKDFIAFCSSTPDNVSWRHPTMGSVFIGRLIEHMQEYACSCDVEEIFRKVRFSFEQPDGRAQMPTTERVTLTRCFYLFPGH
UniProt P29466, 120-297: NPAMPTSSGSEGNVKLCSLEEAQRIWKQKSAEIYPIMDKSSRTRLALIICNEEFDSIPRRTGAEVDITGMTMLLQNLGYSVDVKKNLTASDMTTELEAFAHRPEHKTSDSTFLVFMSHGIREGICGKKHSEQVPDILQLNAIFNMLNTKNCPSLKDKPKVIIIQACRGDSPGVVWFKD
UniProt P42574, 29-175: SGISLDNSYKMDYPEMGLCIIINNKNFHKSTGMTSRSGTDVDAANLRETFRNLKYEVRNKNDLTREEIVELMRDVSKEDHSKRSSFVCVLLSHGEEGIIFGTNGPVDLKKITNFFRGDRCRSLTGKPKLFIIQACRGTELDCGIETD
UniProt P42574, 176-277: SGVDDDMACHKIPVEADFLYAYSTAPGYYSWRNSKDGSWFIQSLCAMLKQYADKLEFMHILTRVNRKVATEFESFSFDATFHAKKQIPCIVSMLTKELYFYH

Legend:
caspase-1 = caspase-1 (Homo sapiens, UniProt P29466); settings: low dose, Tc 2.5 μM, FIG. 3
caspase-3 = caspase-3 (Homo sapiens, UniProt P42574); settings: various concentrations of Tc, 0.5 nM caspase-3, 100 μM Ac-DEVD-AFC, FIG. 3
ATG4B = target: T1, ATG4B (Homo sapiens, UniProt Q9Y4P1); settings: compared with literature inhibitors [24]
T1 sequence (Q9Y4P1 1-393): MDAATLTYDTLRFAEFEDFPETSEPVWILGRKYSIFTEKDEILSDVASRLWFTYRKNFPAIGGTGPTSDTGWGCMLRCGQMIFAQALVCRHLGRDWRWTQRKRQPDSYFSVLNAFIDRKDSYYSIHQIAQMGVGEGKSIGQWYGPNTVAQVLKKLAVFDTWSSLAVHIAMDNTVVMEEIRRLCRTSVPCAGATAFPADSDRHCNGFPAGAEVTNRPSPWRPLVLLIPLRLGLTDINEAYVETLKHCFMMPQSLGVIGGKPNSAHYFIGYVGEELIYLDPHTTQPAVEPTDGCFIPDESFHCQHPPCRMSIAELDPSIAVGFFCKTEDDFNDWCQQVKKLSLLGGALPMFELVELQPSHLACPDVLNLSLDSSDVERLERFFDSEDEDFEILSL

In the case of `Clc1ccc(C(Cn2ccnc2)OCc2ccsc2Cl)c(Cl)c1` (stereo not drawn) [tioconazole], the “selectivity for ATG4B in caspase-1 counter screen” value (caspase-1) is reported as “selectively inhibited ATG4B”, the “selectivity for ATG4B in caspase-3 counter screen” value (caspase-3) is reported as “selectively inhibited ATG4B” and the “potency relative to currently reported ATG4 inhibitors” value (ATG4B) is reported as “approximately 30 fold”.
